# Ab-14 light chain CDR variants: yeast mating affinities

The target is the same throughout: PDVDLGDISGINAS, from the HR2 region of SARS-CoV-2 spike.

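The parent was found by panning a naive human phage display library on the peptide. The variants were designed computationally from a first round of random CDR variants and then made and measured. Group labels follow the data file (Ctrl: baseline library sampled from a position-specific scoring matrix, with some repeated check sequences; GP: Gaussian process model; HC: hill climbing; Gen: genetic algorithm; Gibbs: Gibbs sampling; a sequence that several methods proposed may carry one label only). AlphaSeq pools MATa yeast showing the antibodies with MATalpha yeast showing the peptide. The frequency of each diploid, read from paired DNA barcodes, reflects how well the two displayed proteins bind. Read counts were normalised to the haploid input and turned into Kd by a linear fit to BCL2-family pairs of known affinity, for each replicate. There are six technical replicates.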

Each scFv is VH, a (GGGGS)3 linker, VL, as in the parent Ab-14, and differs from it in the CDRs of the light chain only.
VH: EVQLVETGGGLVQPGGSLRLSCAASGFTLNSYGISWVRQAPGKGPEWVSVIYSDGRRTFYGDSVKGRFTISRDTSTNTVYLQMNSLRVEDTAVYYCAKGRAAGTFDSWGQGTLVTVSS
VL: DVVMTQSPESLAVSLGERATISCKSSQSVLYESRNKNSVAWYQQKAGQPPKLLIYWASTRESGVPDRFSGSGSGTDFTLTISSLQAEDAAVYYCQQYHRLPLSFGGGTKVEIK

Positions count from residue 1 of the parent VL; Q27M puts M in place of Q.
This list holds designs with at most six substitutions.
Scale: log10 of Kd in nM, estimated from mating counts; low values are strong binders.
Averages over replicates are reported, and they cover detected replicates only.
Where no diploid with the target was found in that replicate, the entry reads "ND": below detection, most likely a poor binder, though not proof of it.
Values of this round are not directly comparable with the first-round values of the same sequences.
The authors' rule: three or more of the six replicates give a measured affinity, fewer mean a poor binder.
Three control strains display no target. For all light chain designs, 4% of the pairings with them gave a signal, with a median of 2.64 and one signal in twenty below 1.59, so weak values seen in few replicates may be background. The control count says in how many pairings with the empty strains this scFv gave a signal.

Variant Q27M [Ctrl] showed 1.34, ND, 1.98, 1.67, 0.97, 1.67 (mean 1.53; controls 1 of 18).
Variant S26Y+Y31A+H98D [Ctrl] showed 2.11, 2.81, 2.73, 2.00, ND, 2.76 (mean 2.48; controls 1 of 18).
Variant Q27N+W56A [Ctrl] showed 0.53, 0.79, 0.83, 0.47, 0.70, 0.81 (mean 0.69; controls 0 of 18).
Variant S25L+Y31E+W56G+E61S [Ctrl] showed 0.13, -0.25, -0.12, -0.19, -0.06, -0.22 (mean -0.12; controls 1 of 18).
Variant S25V+E32Q+W56N+T59Q [GP_Gen] showed 0.18, -0.16, -0.17, -0.22, -0.18, 0.06 (mean -0.08; controls 1 of 18).
Variant L30F+W56H+Q96H+Y97K [Ctrl] showed ND, ND, ND, ND, ND, ND (controls 0 of 18).
Variant S25V+S33Q+W56H [GP_Gen] showed -0.07, 0.18, 0.12, -0.06, 0.27, 0.03 (mean 0.08; controls 1 of 18).
Variant S26E+S28I [Ctrl] showed ND, 2.07, 2.48, ND, ND, ND (mean 2.27; controls 0 of 18).
Variant V29L+S62V [Ctrl] showed 1.38, ND, 1.38, 2.41, 1.48, 0.97 (mean 1.52; controls 0 of 18).
Variant V29I+S33G+W56F [Ctrl] showed 1.45, 1.37, 1.38, 1.74, 1.79, 2.00 (mean 1.62; controls 0 of 18).
Variant V29E+W56N+E61M [GP_Gen] showed 0.03, -0.15, 0.08, 0.05, -0.16, -0.37 (mean -0.09; controls 0 of 18).
Variant S25M+S26R+Y31N [Ctrl] showed 1.22, 1.32, 1.97, 1.34, 0.90, 1.39 (mean 1.36; controls 1 of 18).
Variant S25C+Y31Q+S38N+W56E+T59Q [GP_Gibbs] showed 0.27, 0.65, 0.25, 0.24, 0.21, 0.51 (mean 0.36; controls 4 of 18).
Variant V29Y+Y31G+W56Q [Ctrl] showed 0.41, 0.08, 0.12, 0.20, -0.10, 0.24 (mean 0.16; controls 2 of 18).
Variant S25Q+S26P+S28L+V29G+E32G+W56E [GP_Gibbs] showed 1.89, 1.04, 1.52, 1.31, 1.45, 0.91 (mean 1.35; controls 0 of 18).
Variant S25L+L30P+S38Q+W56D+E61M [GP_Gibbs] showed 0.16, -0.06, -0.10, -0.30, 0.05, -0.17 (mean -0.07; controls 3 of 18).
Variant S25L+S26R+S28G+E32Q+W56G [GP_HC] showed 0.20, -0.09, -0.21, -0.23, 0.09, 0.14 (mean -0.02; controls 0 of 18).
Variant N35S [Ctrl] showed ND, ND, 1.83, ND, 2.86, 2.33 (mean 2.34; controls 0 of 18).
Variant S25M+L30D+W56D [GP_Gen] showed -0.26, 0.02, 0.03, -0.25, -0.24, -0.03 (mean -0.12; controls 0 of 18).
Variant R34T+K36Q+Q96F [Ctrl] showed ND, ND, 2.16, 2.37, 2.82, 3.82 (mean 2.79; controls 0 of 18).
Variant S25L+W56N+S58N+S62Q [GP_Gen] showed -0.31, -0.27, -0.41, -0.57, -0.50, -0.23 (mean -0.38; controls 1 of 18).
Variant N37W [Ctrl] showed ND, ND, ND, ND, 2.33, ND (controls 0 of 18).
Variant W56Y+S62T [Ctrl] showed 1.45, 0.96, 2.32, ND, 3.11, 1.19 (mean 1.81; controls 0 of 18).
Variant S25L+V29D+K36S+W56G [GP_Gen] showed 0.44, 0.04, 0.00, -0.06, 0.25, 0.22 (mean 0.15; controls 1 of 18).
Variant S25C+E61S [Ctrl] showed 1.36, 2.58, 1.41, 2.47, 1.81, 2.20 (mean 1.97; controls 2 of 18).
Variant S25L+S38N+W56E+Q96D [GP_Gen] showed -0.11, -0.29, -0.35, -0.48, -0.39, -0.31 (mean -0.32; controls 2 of 18).
Variant W56D+E61H [Ctrl] showed 0.62, 0.61, 0.66, 0.56, 0.76, 0.73 (mean 0.66; controls 1 of 18).
Variant K24V+V29T+L100W [Ctrl] showed ND, ND, ND, ND, ND, ND (controls 0 of 18).
Variant S25L+S26P+W56N+T59Q+S62Q [GP_Gen] showed -0.21, -0.13, -0.26, -0.15, -0.42, -0.11 (mean -0.21; controls 0 of 18).
Variant L30D+Y31G+W56D [GP_HC] showed 0.45, 0.44, 0.11, 0.43, 0.35, 0.42 (mean 0.37; controls 0 of 18).
Variant S25L+S26Q+W56H+E61L [GP_Gen] showed 0.81, 0.54, 0.31, 0.72, 0.67, 0.61 (mean 0.61; controls 2 of 18).
Variant S25L+V29M+W56N+T59Q+S62Q [GP_Gen] showed -0.34, -0.42, -0.35, -0.31, -0.36, -0.44 (mean -0.37; controls 1 of 18).
Variant S25L+S26P+S38A+W56G [GP_Gen] showed -0.29, -0.33, -0.49, -0.50, -0.52, -0.24 (mean -0.40; controls 2 of 18).
Variant S25L+W56H+E61S [GP_Gen] showed 0.21, 0.04, 0.00, 0.00, -0.16, 0.39 (mean 0.08; controls 1 of 18).
Variant S25F+Q27I+V29Y+K36E+W56E+S62Q [GP_HC] showed -0.29, -0.23, 0.03, -0.50, 0.29, 0.76 (mean 0.01; controls 0 of 18).
Variant S58Y+Q95D [Ctrl] showed ND, ND, ND, ND, ND, ND (controls 0 of 18).
Variant S25L+S38N+W56N+S62W [GP_Gen] showed -0.16, -0.14, -0.31, -0.25, -0.27, -0.01 (mean -0.19; controls 2 of 18).
Variant Q27I+V29Y+R34P+W56E+S62D [GP_HC] showed 0.41, 0.38, -0.09, 0.16, 0.13, 0.26 (mean 0.21; controls 1 of 18).
Variant S25L+Q27W+V29M+W56D [GP_Gen] showed 1.32, 0.62, 1.14, 0.75, 1.04, 1.04 (mean 0.99; controls 0 of 18).
Variant K24Q+L30G+R99E [Ctrl] showed 2.27, 1.84, 2.62, ND, 1.90, 2.55 (mean 2.24; controls 0 of 18).
Variant S25Q+Y31G+W56M [GP_HC] showed ND, ND, ND, ND, ND, ND (controls 0 of 18).
Variant S25M+S26Q+V29E+W56N+T59Q+E61M [GP_Gen] showed 0.09, -0.11, 0.06, -0.29, -0.10, 0.03 (mean -0.05; controls 0 of 18).
Variant Y31T+S103E [Ctrl] showed 2.59, 2.75, ND, 2.67, 2.05, 2.74 (mean 2.56; controls 2 of 18).
Variant S25L+Q27M+V29D+W56E [GP_Gen] showed 0.98, 0.96, 0.78, 0.63, 1.15, 0.78 (mean 0.88; controls 0 of 18).
Variant S25L+W56E+E61L [GP_Gen] showed 1.24, 1.33, 1.21, 0.79, 0.78, 0.53 (mean 0.98; controls 1 of 18).
Variant S25L+V29M+L30E+W56N+E61M [GP_Gen] showed 0.56, -0.01, 0.00, 0.14, -0.11, 0.18 (mean 0.13; controls 1 of 18).
Variant S25L+V29W+W56Q [GP_Gen] showed 0.58, 0.49, 0.29, 0.43, 0.46, 0.55 (mean 0.47; controls 0 of 18).
Variant S25L+W56N+E61C+S62E [GP_Gen] showed -0.30, -0.23, -0.14, -0.19, -0.24, -0.25 (mean -0.23; controls 1 of 18).
Variant Q27D+Y31G+R34T+W56Q [Ctrl] showed 0.15, 0.16, 0.09, -0.03, -0.01, 0.28 (mean 0.11; controls 3 of 18).
Variant S25L+S26Q+S28Q+V29Q+W56S+S62E [GP_HC] showed -0.17, -0.15, -0.29, -0.32, -0.28, -0.23 (mean -0.24; controls 0 of 18).
Variant V29E+L30P+Y31F+W56D [GP_HC] showed 0.31, -0.02, 0.05, -0.12, 0.02, 0.08 (mean 0.05; controls 0 of 18).

The last 4 entries again:

For S25L+W56N+E61C+S62E [GP_Gen], the assay gave -0.30, -0.23, -0.14, -0.19, -0.24, -0.25 (mean -0.23; controls 1 of 18).
For Q27D+Y31G+R34T+W56Q [Ctrl], the assay gave 0.15, 0.16, 0.09, -0.03, -0.01, 0.28 (mean 0.11; controls 3 of 18).
For S25L+S26Q+S28Q+V29Q+W56S+S62E [GP_HC], the assay gave -0.17, -0.15, -0.29, -0.32, -0.28, -0.23 (mean -0.24; controls 0 of 18).
For V29E+L30P+Y31F+W56D [GP_HC], the assay gave 0.31, -0.02, 0.05, -0.12, 0.02, 0.08 (mean 0.05; controls 0 of 18).

From the AlphaSeq antibody data of Li et al. 2023 (doi:10.1038/s41467-023-39022-2), copy in the FLAb collection.